# From PubChem BioAssay (EPA / NIEHS)
# Values joined by “and” are separate entries in the source; they are usually repeats but may differ in a detail not shown here. Equal values may be shown once. This is a selection; strong and weak results do not stand in their true shares. Some compounds were tested as several samples or in several runs, with calls that do not always agree. Active and inactive are the calls of the source. How the source made its calls: active means hit-call score of the fitted dose curve at least 0.9, where 1 is the maximum; inactive means score below 0.9.
# Read-out: Tissue plasminogen activator (tPA), PLAT (gene 5327)
# Assay: BSK_BE3C_tPA: BioMAP Diversity Plus: BE3C Assay for Tissue plasminogen activator (tPA) Biomarker Activity (AID 2283041);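 further: tPA level quantified by ELISA one day after compound addition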
# Conditions: actives raise or lower the signal; primary human bronchial epithelial cells
# Outline: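 Primary human bronchial epithelial cells in the BE3C system, exposed to compound for 24 h. tPA was quantified by ELISA; DMSO served as baseline, with gain or loss of signal fitted. Cytotoxicity checked in parallel cultures by SRB total-protein staining.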
row,Structure (SMILES),outcome
1,CC(C)OP(=S)(OC(C)C)SCCNS(=O)(=O)c1ccccc1,inactive
2,O=C1C2CC=CCC2C(=O)N1SC(Cl)(Cl)C(Cl)Cl (stereo unspecified),inactive
3,O=[N+]([O-])c1ccc([N+](=O)[O-])cc1,inactive
4,O=C(Cl)Oc1ccccc1,inactive
5,Cc1cc([N+](=O)[O-])cc([N+](=O)[O-])c1O,inactive
6,CN(C(=O)Cc1cccc2occc12)[C@H]1CC[C@@]2(CCCO2)C[C@@H]1N1CCCC1,inactive

# Read-out: Interleukin-8 (IL8), CXCL8 (gene 3576)
# Assay: BSK_CASM3C_IL8: BioMAP Diversity Plus: CASM3C Assay for Interleukin-8 (IL8) Biomarker Activity (AID 2283042);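 further: IL-8 protein level quantified by ELISA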
# Conditions: actives raise or lower the signal; primary human coronary artery smooth muscle cells
Structure (SMILES),outcome,AC50
CC(C)OP(=S)(OC(C)C)SCCNS(=O)(=O)c1ccccc1,inactive,–
O=C1C2CC=CCC2C(=O)N1SC(Cl)(Cl)C(Cl)Cl (stereo unspecified),–,active: 13 µM
O=[N+]([O-])c1ccc([N+](=O)[O-])cc1,inactive,–
O=C(Cl)Oc1ccccc1,inactive,–
Cc1cc([N+](=O)[O-])cc([N+](=O)[O-])c1O,inactive,–
CN(C(=O)Cc1cccc2occc12)[C@H]1CC[C@@]2(CCCO2)C[C@@H]1N1CCCC1,inactive,–

# Read-out: Human Leukocyte Antigen - DR isotype (HLADR), HLA-DRA (gene 3122)
# Assay: BSK_CASM3C_HLADR: BioMAP Diversity Plus: CASM3C Assay for Human Leukocyte Antigen - DR isotype (HLADR) Biomarker Activity (AID 2283043);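 further: cell-surface HLA-DR protein level quantified by ELISA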
# Conditions: actives raise or lower the signal; primary human coronary artery smooth muscle cells
Structure (SMILES),outcome,AC50
CC(C)OP(=S)(OC(C)C)SCCNS(=O)(=O)c1ccccc1,inactive,–
O=C1C2CC=CCC2C(=O)N1SC(Cl)(Cl)C(Cl)Cl (stereo unspecified),–,active: 5.49 µM
O=[N+]([O-])c1ccc([N+](=O)[O-])cc1,inactive,–
O=C(Cl)Oc1ccccc1,inactive,–
Cc1cc([N+](=O)[O-])cc([N+](=O)[O-])c1O,inactive,–
CN(C(=O)Cc1cccc2occc12)[C@H]1CC[C@@]2(CCCO2)C[C@@H]1N1CCCC1,inactive,–

# Read-out: Macrophage colony-stimulating factor (MCSF), CSF1 (gene 1435)
# Assay: BSK_CASM3C_MCSF: BioMAP Diversity Plus: CASM3C Assay for Macrophage colony-stimulating factor (MCSF) Biomarker Activity (AID 2283044);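 further: M-CSF protein amount quantified by ELISA after 24 h exposure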
# Conditions: actives raise or lower the signal; primary human coronary artery smooth muscle cells
Structure (SMILES),outcome,AC50
CC(C)OP(=S)(OC(C)C)SCCNS(=O)(=O)c1ccccc1,inactive,–
O=C1C2CC=CCC2C(=O)N1SC(Cl)(Cl)C(Cl)Cl (stereo unspecified),–,active: 7.92 µM
O=[N+]([O-])c1ccc([N+](=O)[O-])cc1,inactive,–
O=C(Cl)Oc1ccccc1,inactive,–
Cc1cc([N+](=O)[O-])cc([N+](=O)[O-])c1O,inactive,–
CN(C(=O)Cc1cccc2occc12)[C@H]1CC[C@@]2(CCCO2)C[C@@H]1N1CCCC1,inactive,–

# Read-out: Low-density lipoprotein receptor (LDLR), LDLR (gene 3949)
# Assay: BSK_CASM3C_LDLR: BioMAP Diversity Plus: CASM3C Assay for Low-density lipoprotein receptor (LDLR) Biomarker Activity (AID 2283045);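 further: LDLR protein level on the cell surface quantified by ELISA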
# Conditions: actives raise or lower the signal; primary human coronary artery smooth muscle cells
Structure (SMILES),AC50,outcome
CC(C)OP(=S)(OC(C)C)SCCNS(=O)(=O)c1ccccc1,active: 19.5 µM,inactive
O=C1C2CC=CCC2C(=O)N1SC(Cl)(Cl)C(Cl)Cl (stereo unspecified),–,inactive
O=[N+]([O-])c1ccc([N+](=O)[O-])cc1,–,inactive
O=C(Cl)Oc1ccccc1,–,inactive
Cc1cc([N+](=O)[O-])cc([N+](=O)[O-])c1O,–,inactive
CN(C(=O)Cc1cccc2occc12)[C@H]1CC[C@@]2(CCCO2)C[C@@H]1N1CCCC1,–,inactive

# Read-out: Monocyte Chemoattractant Protein-1 (MCP1), CCL2 (gene 6347)
# Assay: BSK_CASM3C_MCP1: BioMAP Diversity Plus: CASM3C Assay for Monocyte Chemoattractant Protein-1 (MCP1) Biomarker Activity (AID 2283046);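 further: MCP-1 level quantified by ELISA 24 h after dosing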
# Conditions: actives raise or lower the signal; primary human coronary artery smooth muscle cells
Structure (SMILES),outcome,AC50
CC(C)OP(=S)(OC(C)C)SCCNS(=O)(=O)c1ccccc1,inactive,–
O=C1C2CC=CCC2C(=O)N1SC(Cl)(Cl)C(Cl)Cl (stereo unspecified),–,active: 9.33 µM
O=[N+]([O-])c1ccc([N+](=O)[O-])cc1,inactive,–
O=C(Cl)Oc1ccccc1,inactive,–
Cc1cc([N+](=O)[O-])cc([N+](=O)[O-])c1O,inactive,–
CN(C(=O)Cc1cccc2occc12)[C@H]1CC[C@@]2(CCCO2)C[C@@H]1N1CCCC1,inactive,–

# Read-out: not listed separately
# Assay: BSK_CASM3C_Proliferation: Cell Proliferation Assessment in the BioMAP Diversity Plus: CASM3C Assay (AID 2283047);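 further: sulforhodamine B total protein stain as relative cell number at 560 nm; sub-confluent cells exposed 48 h before staining; fitted both ways against DMSO so gain or loss of cell number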
# Conditions: primary human coronary artery smooth muscle cells
Structure (SMILES),AC50,outcome
CC(C)OP(=S)(OC(C)C)SCCNS(=O)(=O)c1ccccc1,active: 29.4 µM and active: 25.8 µM,inactive
O=[N+]([O-])c1ccc([N+](=O)[O-])cc1,–,inactive
O=C(Cl)Oc1ccccc1,–,inactive
Cc1cc([N+](=O)[O-])cc([N+](=O)[O-])c1O,–,inactive
CN(C(=O)Cc1cccc2occc12)[C@H]1CC[C@@]2(CCCO2)C[C@@H]1N1CCCC1,–,inactive

# Read-out: Monokine induced gamma interferon (MIG), CXCL9 (gene 4283)
# Assay: BSK_CASM3C_MIG: BioMAP Diversity Plus: CASM3C Assay for Monokine induced gamma interferon (MIG) Biomarker Activity (AID 2283048);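 further: MIG protein level measured by ELISA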
# Conditions: actives raise or lower the signal; primary human coronary artery smooth muscle cells
row,Structure (SMILES),outcome
1,CC(C)OP(=S)(OC(C)C)SCCNS(=O)(=O)c1ccccc1,inactive
2,O=[N+]([O-])c1ccc([N+](=O)[O-])cc1,inactive
3,O=C(Cl)Oc1ccccc1,inactive
4,Cc1cc([N+](=O)[O-])cc([N+](=O)[O-])c1O,inactive
5,CN(C(=O)Cc1cccc2occc12)[C@H]1CC[C@@]2(CCCO2)C[C@@H]1N1CCCC1,inactive

# Read-out: serum amyloid A (SAA), SAA1 (gene 6288)
# Assay: BSK_CASM3C_SAA: BioMAP Diversity Plus: CASM3C Assay for serum amyloid A (SAA) Biomarker Activity (AID 2283049);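 further: SAA protein level quantified by ELISA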
# Conditions: actives raise or lower the signal; primary human coronary artery smooth muscle cells
row,Structure (SMILES),outcome
1,CC(C)OP(=S)(OC(C)C)SCCNS(=O)(=O)c1ccccc1,inactive
2,O=[N+]([O-])c1ccc([N+](=O)[O-])cc1,inactive
3,O=C(Cl)Oc1ccccc1,inactive
4,Cc1cc([N+](=O)[O-])cc([N+](=O)[O-])c1O,inactive
5,CN(C(=O)Cc1cccc2occc12)[C@H]1CC[C@@]2(CCCO2)C[C@@H]1N1CCCC1,inactive

# Read-out: not listed separately
# Assay: BSK_CASM3C_SRB: Viability Assessment in the BioMAP Diversity Plus: CASM3C Assay (AID 2283050)
# Conditions: primary human coronary artery smooth muscle cells
row,Structure (SMILES),outcome
1,CC(C)OP(=S)(OC(C)C)SCCNS(=O)(=O)c1ccccc1,inactive
2,O=C1C2CC=CCC2C(=O)N1SC(Cl)(Cl)C(Cl)Cl (stereo unspecified),inactive
3,O=[N+]([O-])c1ccc([N+](=O)[O-])cc1,inactive
4,O=C(Cl)Oc1ccccc1,inactive
5,Cc1cc([N+](=O)[O-])cc([N+](=O)[O-])c1O,inactive
6,CN(C(=O)Cc1cccc2occc12)[C@H]1CC[C@@]2(CCCO2)C[C@@H]1N1CCCC1,inactive

# Read-out: Thrombomodulin, THBD (gene 7056)
# Assay: BSK_CASM3C_Thrombomodulin: BioMAP Diversity Plus: CASM3C Assay for Thrombomodulin Biomarker Activity (AID 2283051);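 further: thrombomodulin protein level measured by ELISA 24 h after dosing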
# Conditions: actives raise or lower the signal; primary human coronary artery smooth muscle cells
Structure (SMILES),AC50,outcome
CC(C)OP(=S)(OC(C)C)SCCNS(=O)(=O)c1ccccc1,active: 20 µM,inactive
O=C1C2CC=CCC2C(=O)N1SC(Cl)(Cl)C(Cl)Cl (stereo unspecified),–,inactive
O=[N+]([O-])c1ccc([N+](=O)[O-])cc1,active: 0.493 µM,–
O=C(Cl)Oc1ccccc1,–,inactive
Cc1cc([N+](=O)[O-])cc([N+](=O)[O-])c1O,–,inactive
CN(C(=O)Cc1cccc2occc12)[C@H]1CC[C@@]2(CCCO2)C[C@@H]1N1CCCC1,–,inactive
